The values below come from paper PMC4351159 (Structure (London, England : 1993), 2015).

Sequences of proteins named here, by UniProt entry; tags and fusion partners are left off.
UniProt P40337, whole entry, chain 1 of 3: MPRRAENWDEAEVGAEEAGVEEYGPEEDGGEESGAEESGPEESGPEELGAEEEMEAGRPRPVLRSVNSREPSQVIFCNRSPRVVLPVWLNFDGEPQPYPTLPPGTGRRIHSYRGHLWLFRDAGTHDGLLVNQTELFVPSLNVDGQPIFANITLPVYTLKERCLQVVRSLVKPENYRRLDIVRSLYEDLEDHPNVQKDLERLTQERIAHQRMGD

This assay deals with GST-VHL–EloBC complex (UniProt P40337 1-213; Q15370 1-118; Q15369 17-112). As to the kind of experiment: pull-down.

B1: 6xHis-MBP-Cul2 (residues 1-277) (domain or fragment)
chain: MSLKPRVVDFDETWNKLLTTIKAVVMLEYVERATWNDRFSDIYALCVAYPEPLGERLYTETKIFLENHVRHLHKRVLESEEQVLVMYHRYWEEYSKGADYMDCLYRYLNTQFIKKNKLTEADLQYGYGGVDMNEPLMEIGELALDMWRKLMVEPLQAILIRMLLREIKNDRGGEDPNQKVIHGVINSFVHVEQYKKKFPLKFYQEIFESPFLTETGEYYKQEASNLLQESNCSQYMEKVLGRLKDEEIRCRKYLHPSSYTKVIHECQQRMVADHLQF
With B1, the binding result is “binds”.
